Earlier results, collected in patent US20130032547A1, “STABILIZATION AND DISINFECTION OF WASTES USING HIGH ENERGY E-BEAM AND CHEMICAL OXIDANTS” (priority 2011, published 2013).

Tested on: endocrine disrupting activity
Conditions: studies at Tulane University; cited from earlier work

chlorine
increase in endocrine disrupting activity after treatment: about 70%
